In ChEMBL document CHEMBL1212777, “Novel VIM metallo-beta-lactamase variant from clinical isolates of Enterobacteriaceae from Algeria” (2010):

Assays:
[1] = system: C[C@@H](O)[C@H]1C(=O)N2C(C(=O)O)=C(S[C@@H]3CN[C@H](C(=O)N(C)C)C3)[C@H](C)[C@H]12; experiment: (§1) Hydrolytic activity of beta-lactamase VIM-1 in Escherichia coli DH5alpha expressing pBCLL/39H by microacidimetric method
[2] = system: CO/N=C(\C(=O)N[C@@H]1C(=O)N2C(C(=O)[O-])=C(C[N+]3(C)CCCC3)CS[C@H]12)c1csc(N)n1; experiment: as §1
[3] = system: C[C@@H](O)[C@H]1C(=O)N2C(C(=O)O)=C(SCCNC=N)C[C@H]12; experiment: as §1
[4] = system: CO/N=C(\C(=O)N[C@@H]1C(=O)N2C(C(=O)[O-])=C(C[N+]3(C)CCCC3)CS[C@H]12)c1csc(N)n1; experiment: (§2) Ratio of Kcat to Km for beta-lactamase VIM-1 in Escherichia coli DH5alpha expressing pBCLL/39H by microacidimetric method
[5] = system: C[C@@H](O)[C@H]1C(=O)N2C(C(=O)O)=C(SCCNC=N)C[C@H]12; experiment: as §2

BlaVIM-1 (Escherichia coli) (from UniProt Q8GDC1)
kcat [1]: 13 s⁻¹ | kcat [2]: 549 s⁻¹ | kcat [3]: 2 s⁻¹ | kcat/Km [4]: 3.8e+06 M⁻¹ s⁻¹ | kcat/Km [5]: 1.3e+06 M⁻¹ s⁻¹
